This note sets out measurements from patent publication US10508104B2, “6-hydroxy-5-(phenyl/heteroarylsulfonyl)pyrimidin-4(1H)-one as APJ agonists” (Bristol-Myers Squibb Company, priority 2016, dated 2019).

The chains behind the UniProt entries cited, without tags or fusion partners. Where a name states a change or a piece, a line headed by the entry shows the natural chain unless it says otherwise.
UniProt P35414: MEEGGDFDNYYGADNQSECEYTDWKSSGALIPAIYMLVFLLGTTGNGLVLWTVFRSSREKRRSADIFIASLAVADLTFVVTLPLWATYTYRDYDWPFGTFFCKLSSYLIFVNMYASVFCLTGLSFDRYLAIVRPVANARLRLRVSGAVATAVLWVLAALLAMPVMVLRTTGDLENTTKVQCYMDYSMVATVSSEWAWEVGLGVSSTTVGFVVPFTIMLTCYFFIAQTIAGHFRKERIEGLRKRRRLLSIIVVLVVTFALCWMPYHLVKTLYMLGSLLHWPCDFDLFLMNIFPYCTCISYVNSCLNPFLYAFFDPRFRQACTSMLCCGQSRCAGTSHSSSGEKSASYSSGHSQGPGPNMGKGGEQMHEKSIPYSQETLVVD

The target in this assay is human APJ receptor (Homo sapiens (Human), UniProt P35414). As to the kind of experiment: Intracellular cAMP accumulation assay (APJ hcAMP, HTRF). It counts as cell-based. The note with it: read-out: Human APJ cAMP EC50 Potency range. Here is the method: Intracellular cAMP Accumulation Assay
HEK293 cells stably expressing human APJ receptor were used to assess the activity of compounds. Cultured cells were detached and resuspended in the cAMP Homogeneous Time-Resolved Fluorescence (HTRF) assay buffer (Cisbio cat; #62AM4PEJ). The assay was performed in 384-well assay plates (Perkin-Elmer; cat #6008289) according to assay protocol provided by the manufacturer. Serial dilutions of a compound together with assay buffer containing […] and 2 μM forskolin were added to each well containing 5,000 cells and incubated for 30 minutes at room temperature. Subsequently, cAMP D2 reagent was added in the lysis buffer followed by the EuK antibody (Cisbio; cat #62AM4PEJ) and incubated for 60 min. The fluorescence emission ratio was measured using fluorometer. The intracellular cAMP concentrations (compound-stimulated inhibition of forskolin-mediated cAMP production) were calculated by extrapolation from a standard curve using known cAMP concentrations. The EC50 values were obtained by fitting the data to a sigmoidal concentration-response curve with variable slope. […]
The biological activity of the exemplified compounds of this invention determined by the assay described above is shown at the end of each example.

SMILES strings stand for the structures.

For the compound `COc1cccc(OC)c1-n1c(CCC(C)C)nc(=O)c(S(=O)(=O)c2ccc(-c3ccc(F)nc3)cc2)c1O` [Example 13, 1-(2,6-dimethoxyphenyl)-5-[4-(6-fluoropyridin-3-yl)benzenesulfonyl]-6-hydroxy-2-(3-methylbutyl)-1,4-dihydropyrimidin-4-one], the half-maximal effective concentration (EC50) was 0.01 to 10 nM.
